## scFv variants of Ab-91 (heavy chain) against a SARS-CoV-2 spike peptide

From the AlphaSeq antibody data of Engelhart et al. 2022 (doi:10.1038/s41597-022-01779-4), copy in the FLAb collection.

Target: peptide PDVDLGDISGINAS, taken from heptad repeat 2 (HR2) of SARS-CoV-2 spike.

Ab-91 is the parent antibody, in scFv form: VL, then three GGGGS repeats, then VH. The light chain is unchanged in all variants.
VL: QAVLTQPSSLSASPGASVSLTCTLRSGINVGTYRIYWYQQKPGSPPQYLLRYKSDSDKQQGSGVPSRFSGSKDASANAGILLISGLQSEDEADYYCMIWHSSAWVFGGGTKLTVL
VH: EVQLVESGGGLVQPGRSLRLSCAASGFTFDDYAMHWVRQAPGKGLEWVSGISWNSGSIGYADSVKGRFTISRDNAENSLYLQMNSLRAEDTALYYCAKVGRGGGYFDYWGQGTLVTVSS

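The parent was found by panning a naive human phage display library on the peptide. Library AAYL51 holds single substitutions and randomly drawn double and triple substitutions in the CDRs. The assay is AlphaSeq: two haploid yeast populations carry antibody and antigen on their surface. Mating (16 h, 30 °C) was followed by selection of diploids and sequencing of their barcodes. Read counts were normalised to the haploid input and turned into Kd by a linear fit to BCL2-family pairs of known affinity, for each replicate. Mating was done three times.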

Positions count from residue 1 of the parent VH; Y60M puts M in place of Y.
All variants listed here change Y60 of the VH, counted from its first residue.
Numbers give log10(Kd / nM), so 0 is 1 nM and 3 is 1 µM. Smaller is tighter.
The mean shown is taken over the replicates in which the pair was detected.
A pair that was not seen in any replicate is written "no signal"; this usually means weak binding, but a binder can also be missed.

With Y60M S63T G103D the result was 2.11 (3 of 3 replicates). With Y60S A61I Y108F the result was 4.75 (2 of 3 replicates). The variant D30W N54D Y60G showed no signal (0 of 3 replicates). The variant N54D Y60Q F106L gave no signal (0 of 3 replicates). With T28K Y60G the result was 4.86 (2 of 3 replicates). For N54G Y60W G103E, the assay gave 5.00 (1 of 3 replicates). The variant W53C Y60D A61C showed 4.83 (2 of 3 replicates).

The variant G59P Y60D showed 4.14 (1 of 3 replicates). The variant A33R H35Y Y60R showed no signal (0 of 3 replicates). For Y60N R101H Y108H, the assay gave 4.15 (3 of 3 replicates). For H35R I51P Y60D, the assay gave 6.23 (1 of 3 replicates). With Y60W V99I Y105V the result was 5.53 (2 of 3 replicates). The variant F27C Y60V K65V showed no signal (0 of 3 replicates). The variant A33C S57E Y60K gave 5.32 (2 of 3 replicates).

With D31I Y60T V99L the result was 5.78 (1 of 3 replicates). The variant Y60R A61C D62M showed no signal (0 of 3 replicates). The variant A33D S57R Y60P showed no signal (0 of 3 replicates). The variant Y32N Y60P gave 4.99 (2 of 3 replicates). The variant Y60D K65I Y105D showed 4.54 (2 of 3 replicates). With G56L Y60A G102D the result was 4.90 (2 of 3 replicates). The variant Y60G G103S gave 4.52 (1 of 3 replicates).

The variant Y60W V99T gave no signal (0 of 3 replicates). With F29V G59F Y60I the result was no signal (0 of 3 replicates).

Extract of 3 entries:

changes,mean log10 Kd (nM),replicates with signal
Y60W V99I Y105V,5.53,2/3
T28K Y60G,4.86,2/3
A33C S57E Y60K,5.32,2/3

As a blank, each scFv also met three strains without target: over library AAYL51, 21% of these pairings were detected, typically at 4.54 and seldom below 3.26.